{"source": "patent US5064862A", "about": "“Anticonvulsant method and formulations” (priority 1990, dated 1991)", "assay": "in vivo", "details": "mouse, ip"}
{"smiles": "O=C1NC(=O)C(c2ccccc2)(c2ccccc2)N1", "note": "[Phenytoin]", "values": [{"measurement": "LD50", "value": 23, "unit": "mg/kg"}]}
